E-sel inducer = E-selectin induction on HUVECs | activation, % at 7.58 µM | 260,000 compounds, 0.37% hits | HUVEC E-selectin immunofluorescence imaging; normalized: neutral wells 0, TNF-alpha wells 100;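 active = mean E-selectin-positive cell signal at least 10% of the positive control, reached in at least 60% of replicates, without over 20% cell loss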
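System: HUVEC, human umbilical vein endothelial cells; quantity: 3,000 cells/well; buffer or medium: EGM-2 medium, gelatin-coated wells; dosing: single-point compound dose; detection: immunofluorescence imaging; evaluation: % PE-positive cells; benchmarks: TNF-alpha, DMSO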
RAD52 anneal inh = inhibitors of human RAD52 DNA annealing | recombinant RAD52 DNA annealing, FRET fluorescence | P43351 | inhibition, % at 18.7 µM | 360,000 compounds, 0.46% hits;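 active = every replicate showing at least 50% inhibition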
Xi reactivation = activators of X-chromosome reactivation in mouse fibroblasts; 360,000 compounds, 0.055% hits; activation, % at 7.58 µM; AID 743238; XiGFP mouse fibroblasts, % GFP-positive cells imaging, 3 d; cells co-treated with 5-aza-dC sensitizer; scaled so ellipticine positive control = 100%;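 active = mean normalized replicate activation at least 10% and every replicate at or above 10%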;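 note: 0% = median of on-plate neutral control wells and 100% = ellipticine 6 µM median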
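System: 68-5-11 XiGFP fibroblast line | Buffer or medium: DMEM containing 5-aza-dC | Compound: Single point | Times: Compounds 3 days, fix/stain 15 min at room temperature | Benchmarks: Positive control ellipticine, 6 µM final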
RAD54 branch = inhibitors of human RAD54 branch migration. inhibition, % at 10.4 µM. RAD54 Holliday junction branch migration, FAM/BHQ fluorescence. Q92698. 360,000 compounds, 0.14% hits;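 active = mean normalized replicate activity at least 40 and at least half of replicates scoring 40 or more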;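 note: 0% = median of neutral control wells and 100% = median of positive control wells; inhibitors cause a drop in the FAM fluorescence signal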
UUG fidelity = modulators of yeast start codon fidelity, primary screen, whole organism, S. cerevisiae, single point, plate reader. S. cerevisiae UUG-firefly luciferase reporter, luminescence/redox ratio. activity score, % at 18.7 µM. 350,000 tested, 0.13% active;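 active = replicate mean at a twofold rise or more, about +100% in these data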;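 also: firefly luciferase made from a UUG start codon reports start codon fidelity; reporter light over untreated wells divided by growth signal over untreated wells; some hits fall short of that in this replicate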
Active calls of the source: *; i = inactive; x = not tested or not shown. Only some compounds are listed: those with a hit (about 0.73% of all), similar ones and a draw of the others.

1) CN1CCN(c2cc(N3CCN(C(=O)c4ccco4)CC3)c3c4c(onc24)-c2ccccc2C3=O)CC1
2) O=C1c2ccccc2-c2onc3c(N4CCN(CCO)CC4)cc(N4CCN(C(=O)c5ccco5)CC4)c1c23
3) C[C@H]1CN([C@@H](C)CO)C(=O)c2cccc(NS(C)(=O)=O)c2O[C@H]1CN(C)S(C)(=O)=O
4) C[C@H](CO)N1C[C@H](C)[C@H](CN(C)S(C)(=O)=O)Oc2c(NS(C)(=O)=O)cccc2C1=O
5) C[C@H](CO)N1C[C@H](C)[C@H](CN(C)C)Oc2c(NS(C)(=O)=O)cccc2C1=O
6) CC(=O)NC1C(=O)N(CCN2CCOCC2)c2ccc(F)cc21 (stereo unspecified)
7) CCCC#Cc1ccc([C@@H]2[C@H](CO)N3CCCCN(S(=O)(=O)c4ccccc4C)C[C@@H]23)cc1
8) COc1ccc(-c2nnc(SCc3ccccc3F)o2)cc1OC

Compound	1	2	3	4	5	6	7	8
E-sel inducer	x	x	36*	64*	-1	53*	-1	x
RAD52 anneal inh	x	-42	3	3	5	13	35	x
Xi reactivation	x	0	0	0	0	0	0	x
RAD54 branch	54*	31	1	4	-7	x	0	-5
UUG fidelity	-5	0	-20	-14	5	x	7	-14

9) COc1cc2c3nnc(-c4ccccc4)c-3cn(Cc3ccccc3F)c2cc1OC
10) COc1cc2c3nnc(-c4ccc(F)cc4)c-3cn(Cc3ccccc3F)c2cc1OC
11) Cc1ccc(S(=O)(=O)N2CCN(C(=O)COC(=O)c3ccccc3OC(F)F)CC2)c(C)c1
12) CC1CCN(C(=O)c2ccc3c(c2NCCO)C(=O)c2ccccc2C3=O)CC1
13) CCN(CC)CCNC(=O)c1ccc2c(c1NCCO)C(=O)c1ccccc1C2=O
14) COc1ccc2c(c1)c(/C=N/Nc1nc3ccccc3[nH]1)c(C)n2C
15) C[C@H]1CCCCO[C@H](CN(C)C(=O)NC2CCCCC2)[C@@H](C)CN([C@@H](C)CO)C(=O)c2cc(NC(=O)c3ccccc3)ccc2O1
16) CCC[C@@H](CN1CCC[C@H]1CN1C(N)=NC[C@@H]1Cc1ccccc1)N1C[C@@H](Cc2ccccc2)N(CCc2ccc(Cl)c(Cl)c2)C1=N

Compound	9	10	11	12	13	14	15	16
E-sel inducer	x	x	x	x	x	0	0	0
RAD52 anneal inh	x	i	-4	x	87*	0	x	56*
Xi reactivation	97*	114*	127*	x	0	17*	0	0
RAD54 branch	x	x	-2	16	122*	-1	-7	19
UUG fidelity	x	x	13	1	-24	-26	15	16

17) CCC[C@@H](CN1CCC[C@H]1CN1C(N)=NC[C@@H]1Cc1ccccc1)N1C[C@@H]([C@H](C)CC)N(CCc2ccc(Cl)c(Cl)c2)C1=N
18) CCCNC(=O)N1C[C@H](C)[C@@H](OC)CN(C)C(=O)c2cc(NC(=O)CC)ccc2OC[C@@H]1C
19) CCOc1ccc(C(=O)N2CCN(S(=O)(=O)c3cccs3)CC2)c(OCC)c1
20) CCOC(=O)N1CCN(S(=O)(=O)c2cccs2)CC1
21) COc1ccc2c3c(n(C)c2c1)[C@H](CO)NCC31CN(C(=O)c2cccc(F)c2)C1
22) O=C(c1cncc(Br)c1)N1CCN(S(=O)(=O)c2ccccc2)CC1
23) O=C(c1cncc(Br)c1)N1CCN(S(=O)(=O)c2ccccc2C(F)(F)F)CC1
24) O=C(C[C@H]1CC[C@H]2[C@@H](COC[C@@H](O)CN2Cc2cccc(C(F)(F)F)c2)O1)NCCc1ccccc1

Compound	17	18	19	20	21	22	23	24
E-sel inducer	x	0	33*	x	1	x	33*	0
RAD52 anneal inh	x	-2	3	x	-10	7	-13	16
Xi reactivation	x	0	1	x	0	0	0	0
RAD54 branch	7	8	-1	-4	x	-5	x	-1
UUG fidelity	0	-9	-9	-19	x	-3	x	9

25) Cc1cccc(CC(=O)Nc2sc(C(C)C)cc2C(=O)N2CCOCC2)c1
26) O=C(NC1CCCCC1)N1CC(=O)N2[C@@H](CO)[C@@H](c3ccc(-c4cccnc4)cc3)[C@@H]2C1
27) Cc1ccc(NC(=O)CN2CCOCC2)cc1Cl
28) Cc1ccc2nc(=O)c(NNc3ccccc3)cnc2c1
29) Cc1nc2ccccc2nc(=O)c1NNc1ccccc1
30) CCc1ccccc1OCC(=O)Nc1ccc(N2CCCC2)cc1C
31) CN(C)C(=O)[C@@H]1[C@@H](CO)[C@@H]2Cn3c(ccc(C4=CCCCC4)c3=O)[C@H]1N2C
32) O=C(/C=C/c1cccc(Cl)c1)c1ccc([N+](=O)[O-])o1

Compound	25	26	27	28	29	30	31	32
E-sel inducer	67*	0	46*	178*	x	0	1	0
RAD52 anneal inh	-3	61*	-22	-4	-9	-19	72*	-23
Xi reactivation	0	0	4	0	0	37*	0	4
RAD54 branch	-2	x	5	x	x	-7	10	7
UUG fidelity	-11	x	-16	x	x	-4	x	-14

33) COc1ccc(/C=C/C(=O)c2ccc([N+](=O)[O-])o2)cc1OC
34) COc1cc(/C=C/C(=O)c2ccc([N+](=O)[O-])o2)ccc1O
35) CCCC#Cc1cnc2c(c1)C(=O)N([C@@H](C)CO)C[C@H](C)[C@@H](CN(C)C(=O)C1CCCCC1)O2
36) C[C@H](CO)N1C[C@H](C)[C@H](CN(C)C(=O)Nc2ccc3c(c2)OCO3)Oc2ccc(NC(=O)NC3CCCCC3)cc2CC1=O
37) C[C@H](CO)N1C[C@H](C)[C@@H](CN(C)Cc2ccc3c(c2)OCO3)Oc2ccc(NC(=O)Nc3cccc4ccccc34)cc2CC1=O
38) C[C@@H]1CN([C@H](C)CO)C(=O)Cc2cc(NC(=O)C3CC3)ccc2O[C@@H]1CN(C)Cc1ccc2c(c1)OCO2
39) C[C@@H]1CN([C@@H](C)CO)C(=O)Cc2cc(NC(=O)NC3CCCCC3)ccc2O[C@H]1CN(C)C(=O)Nc1ccc2c(c1)OCO2
40) C[C@@H]1CN([C@H](C)CO)C(=O)Cc2cc(NS(=O)(=O)c3cn(C)cn3)ccc2O[C@H]1CN(C)S(=O)(=O)c1cccs1

Compound	33	34	35	36	37	38	39	40
E-sel inducer	1	0	1	-8	x	29*	28*	0
RAD52 anneal inh	-15	-9	x	2	55*	1	-5	-1
Xi reactivation	14*	21*	0	0	0	0	0	-1
RAD54 branch	x	-5	x	2	30	-1	7	-5
UUG fidelity	x	-17	1	8	18	-6	6	-8

41) COc1ccc2c3c([nH]c2c1)[C@H](CO)N(C(=O)c1ccccn1)CC31CCN(C(=O)C2CC2)CC1
42) O=C(c1c(F)c(F)c(F)c(F)c1F)N(Cc1ccccc1)Cc1ccccc1
43) O=C(c1c(F)cccc1F)N(Cc1ccccc1)Cc1ccccc1
44) COc1cc(NS(=O)(=O)c2ccc(C)cc2)c2c(c1N)C(=O)c1ccccc1C2=O
45) CN(C)CCCNC(=O)C[C@@H]1CC[C@H]2[C@@H](COC[C@H](O)CN2CC2CCCCC2)O1
46) Cc1ccc(S(=O)(=O)N2C[C@H](O)COC[C@H]3O[C@H](CC(=O)NCC4CCCCC4)CC[C@@H]32)cc1
47) Cc1ccc(S(=O)(=O)N2C[C@@H](O)COC[C@H]3O[C@H](CC(=O)NCC4CCCCC4)CC[C@@H]32)cc1

Compound	41	42	43	44	45	46	47
E-sel inducer	0	x	32*	127*	0	0	0
RAD52 anneal inh	x	x	-9	-33	65*	65*	82*
Xi reactivation	0	x	0	0	0	0	0
RAD54 branch	x	-6	-16	10	x	2	-2
UUG fidelity	x	9	-1	58	x	26	41

Bioassay records deposited in PubChem by Broad Institute.
